Results taken from patent US20070202079A1, “Therapeutic compositions and methods useful in modulating protein tyrosine phosphatases” (priority 2006, published 2007).

Test system: WM9 cells
Test: WM9 cell growth, MTT
Format: cell-based, human
Settings: day 6
Experimental: For cell proliferation assays, cells were grown in 10% FCS culture medium containing various amounts of IFNs and/or sodium stibogluconate in 96 well plates and cultured at 37° C. for 3 or 6 days as indicated. The numbers of viable cells in proliferation assays were determined by MTT assays as described in Phatak et al., J. Immunol. 167, 3391 (2001). […]
NIH3T3 (Yi, et al., Blood 85, 87 (1995)), WM9 (Forsberg, et al., Proc. Nat. Acad Sci. USA 90, 393 (1993)), DU145 (Mickey, et al., Cancer Res. 37, 4049 (1977)), LoVo (Drewinko, et al., Cancer Res. 36, 467 (1976)), HEY (Buick, et al., Cancer Res. 45, 3668 (1985)), U251 (Yoshida, et al., Cancer 50, 410 (1982)), A549 (Giard, et al., J. Natl. Cancer Inst. 51, 1417 (1973)) and SK-N-SH (Helson, et al., Cancer Res. 35, 2594 (1975)) cell lines have been described and were cultured in RPMI 1640 supplemented with 10% fetal calf serum (FCS). For measurement of sodium stibogluconate effects on cell growth in vitro, cells were cultured in the absence (−) or presence (+) of various amounts of sodium stibogluconate for 6 days with viable cells quantified by MTT assays (Mosmann, J. Immunol. Methods 65, 55 (1983)). Percentages of growth inhibition by sodium stibogluconate were calculated (.+−.x%).

B1: IFN-beta: recombinant human IFN-beta (protein, UniProt P01574 22-187, looked up)
Interferon beta: MSYNLLGFLQRSSNFQCQKLLWQLNGRLEYCLKDRMNFDIPEEIKQLQQFQKEDAALTIYEMLQNIFAIFRQDSSSTGWNETIVENLLANVYHQINHLKTVLEEKLEKEDFTRGKLMSSLHLKRYYGRILHYLKAKEYSHCAWTIVRVEILRNFYFINRLTGYLRN
growth of WM9 cells with IFNs: more potently
